Source: article PMC7466261, “In Silico and In Vitro Analysis of Multifunctionality of Animal Food-Derived Peptides” (Foods, 2020)

Tests used:
[1] = biological target: T1, angiotensin-converting enzyme (ACE) (Oryctolagus cuniculus, UniProt P12822); assay: ACE-inhibitory activity, fluorescence assay with Abz-Gly-Phe(NO2)-Pro; details: read-out: ACE Inhibitory Activity (IC50-µM), symbol; highest peptide concentration analyzed 1000 µM
[2] = biological target: T1, angiotensin-converting enzyme (ACE); details: read-out: ACE inhibitory IC50, cited from earlier work

N=C(N)NCCC[C@H](N)C(=O)N[C@@H](Cc1ccc(O)cc1)C(=O)O
IC50 [1]: > 1000 µM | IC50 ([2]; BIOPEP-UWM): 51 µM | IC50 ([2]; database value): 54.4 µM

Like-named read-outs stand apart in the source and are kept apart here.
